## Measured properties of organic chemicals

Source: data files of OPERA 2.9 (Mansouri et al.), github.com/kmansouri/OPERA.

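OPERA's authors assembled the values from existing databases and did not measure them anew. One number stands for a compound and property, with no spread given. How each value was measured is not recorded, so precision varies. A value may pool stereoisomers or salt forms, and the file does not say which form was measured. Unmarked limits or estimates from the upstream databases cannot be ruled out.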

The melting point is given in degrees Celsius. The boiling point refers to atmospheric pressure (760 mmHg), by the definition of the set. logP is the log10 of the octanol-water partition coefficient; higher is more lipophilic. Water solubility is log10 of mol/L, nominally at 25 °C; higher is more soluble. Vapor pressures (log10 mmHg) refer to near room temperature, 15 to 30 °C; higher is more volatile. The Henry's law constant is on a log10 scale in atm·m3/mol (set defined at 25 °C); higher favours air over water. fu is the fraction unbound in human plasma, from 0 to 1.

CC1(C)COC2(CCC3=C(CC[C@@H]4[C@@H]3CC[C@@]3(C)[C@H]4CC[C@]3(O)C#N)C2)OC1 is reported with MP 194.1 °C and log Kow 4.44 and log solubility -4.41 (log10 mol/L) and log vapor pressure -8.34 (log10 mmHg). C=CCN(C)CC=C has log Kow 1.28 and log vapor pressure 1.283 (log10 mmHg). Cc1cc(C(C)(C)C)c(O)c(C)c1CC#N is reported with MP 136.5 °C and log solubility -4.258 (log10 mol/L). For NCCOCCN the data give log Kow -2.12 and log vapor pressure -0.149 (log10 mmHg). C=CCOC(=O)CCC1CCCCC1 has log Kow 4.28 and log solubility -4.062 (log10 mol/L) and log vapor pressure -1.545 (log10 mmHg).

CC(=O)C1CCc2cc(F)ccc2O1 (centres undefined) is reported with MP -65.5 °C and log solubility -2.294 (log10 mol/L) and log vapor pressure -2.684 (log10 mmHg). The entry for COc1ccc2c(O[C@@H]3C[C@H]4C(=O)N[C@]5(C(=O)O)C[C@H]5C=CCCCCN(C)C(=O)[C@@H]4C3)cc(-c3nc(C(C)C)cs3)nc2c1C lists MP 240.1 °C and log Kow 4.1 and log vapor pressure -8.012 (log10 mmHg). COC(=O)CS(=O)(=O)c1ccccc1 has MP 32.5 °C and log solubility -1.141 (log10 mol/L). NCCNCCS(=O)(=O)[O-].[Na+] is reported with log Kow -3.1 and log vapor pressure -4.199 (log10 mmHg). The entry for O=C(O)c1c(F)cccc1F lists log solubility -1.71 (log10 mol/L) and log vapor pressure -1.585 (log10 mmHg) and log H -6.83 (log10 atm·m3/mol).

CCC(=O)C(C)CC=C(C)C (centres undefined) has log solubility -2.701 (log10 mol/L) and log vapor pressure -0.554 (log10 mmHg). NC1=NS(=O)(=O)c2ccccc21 has MP 280 °C and log solubility -2.454 (log10 mol/L). Listed for O=C(O)c1ccc(C(=O)O)o1: log Kow 0.299 and log solubility -2.217 (log10 mol/L) and log vapor pressure -11.61 (log10 mmHg). CCCCCCCCCCCC(=O)OCC(C)(C)C=NCC1(C)CC(N=CC(C)(C)COC(=O)CCCCCCCCCCC)CC(C)(C)C1 (centres undefined) is reported with MP -39 °C and log vapor pressure -5.058 (log10 mmHg). CC(=O)c1ccc(Cl)cc1Cl is reported with log Kow 2.675 and log vapor pressure -1.84 (log10 mmHg).

Listed for C=C(C)C(=O)OCCOCCOCCCC: log Kow 3.015 and log solubility -1.985 (log10 mol/L) and log vapor pressure -2.62 (log10 mmHg). Listed for Cc1cc(C(=C2C=CC(=N)C=C2)c2ccc(N)cc2)ccc1N.Cl: MP 200 °C and log Kow 1.36. For CCCCCCCCC(=O)OCC(C)OC(=O)CCCCCCCC (centres undefined) the data give MP -33.5 °C and log solubility -5.853 (log10 mol/L). Listed for NCCCNCCN: log Kow -1.52 and log vapor pressure -1.458 (log10 mmHg). C(=Cc1ccccc1)C=NCCCCCCN=CC=Cc1ccccc1 has MP 90.37 °C and log solubility -3.894 (log10 mol/L).

Listed for CCOC(=O)c1ccc2sc3ccccc3c(=O)c2c1: MP 128.5 °C and log Kow 4.97 and log solubility -6.757 (log10 mol/L). Listed for COc1cccc(OC)c1C(=O)N[C@@H]1C(=O)N2[C@@H]1SC(C)(C)[C@@H]2C(=O)O: log solubility -3.089 (log10 mol/L) and plasma fu 0.475. CC(=O)CCCC(C)CCCC(C)CCCC(C)C (centres undefined) has MP -78 °C and log solubility -5.475 (log10 mol/L). The entry for CCCCCCCCC=CCCCCCCCC(=O)OCCC lists log solubility -8.059 (log10 mol/L) and log vapor pressure -3.803 (log10 mmHg). C=CCCCCC=C is reported with log solubility -4.023 (log10 mol/L) and log vapor pressure 1.202 (log10 mmHg).

N=c1[nH]c2c(s1)CC(N)CC2 (centres undefined) has MP 216.9 °C and log Kow 0.2 and log vapor pressure -7.552 (log10 mmHg). The entry for CC1(C)C2CC=C(CCC=O)C1C2 (centres undefined) lists log Kow 4.3 and log solubility -3.466 (log10 mol/L) and log vapor pressure -1.481 (log10 mmHg). The entry for CC1C(C)(C)C2=C(c3ncncc3CC2)C1(C)C (centres undefined) lists MP 70.85 °C and boiling point 335 °C and log solubility -4.788 (log10 mol/L) and log vapor pressure -3.921 (log10 mmHg). For C1CCC(COCC2CCCCC2)CC1 the data give log Kow 5.67 and log vapor pressure -2.011 (log10 mmHg). Listed for NS(=O)(=O)c1cc(C(=O)Cl)ccc1Cl: MP 167 °C and log vapor pressure -8.782 (log10 mmHg).

CC(=O)c1ccc2c(c1)CCCC2 has log solubility -3.233 (log10 mol/L) and log vapor pressure -3.013 (log10 mmHg). The entry for CCCCCC1CCC(C2CCC(CCC)CC2)CC1 (centres undefined) lists MP 96 °C and boiling point 366 °C and log Kow 4.4 and log solubility -6.746 (log10 mol/L) and log vapor pressure -5.381 (log10 mmHg).